According to PubChem BioAssay AID651647 (Sanford-Burnham Center for Chemical Genomics, 2012):
Only a part is listed here, and it is no random draw. The source made the active and inactive calls.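 Rule for the calls: active = GFP/RFP ratio change of at least 30% with cell ATP level not reduced by more than half and red fluorescence within 50% of control; inactive = the rest, inconclusive results apart.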

The molecules below were run against Matrix metalloproteinase-14 (Homo sapiens) (UniProt P50281) (assay: MT1-MMP activation inhibitors, cellular reporter – HT1080 RFP-PRO-GFP cells, GFP/RFP fluorescence, primary screen (AID 651647)). Details: overnight, at 20 µM, active compounds read high, percent of plate control window, DMSO zero.
In short: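 Assay system: RFP-PRO-GFP reporter HT1080 cells; read-out basis: GFP/RFP fluorescence ratio; benchmarks: DMSO wells and RFP-L50D-GFP cells; doses: 20 µM single dose, 1% DMSO; schedule: overnight cell settling, then overnight compound exposure, 37 °C, 5% CO2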

Compound | GFP/RFP ratio change
Cc1ccc(Nc2c([N+](=O)[O-])cc([N+](=O)[O-])cc2[N+](=O)[O-])cc1 | inactive: 11.6%
Cc1cccc(C)c1OP(C)(=O)Nc1ccc(SC(F)(F)F)cc1 (centres undefined) | inactive: -1.4%
CP(=O)(Nc1ccc(SC(F)(F)F)cc1)Oc1ccc(Cl)cc1 (centres undefined) | inactive: 2.09%
CP(=O)(Oc1ccccc1)OC(c1ccccc1)C(F)(F)F (centres undefined) | inactive: -1.57%
COc1ccccc1OP(C)(=O)Nc1ccccc1 (centres undefined) | inactive: -4.92%
CP(=O)(Nc1ccccc1Br)Oc1ccccc1 (centres undefined) | inactive: 5.74%
CP(=S)(Nn1cnnc1)Oc1ccccc1 (centres undefined) | inactive: 1.55%
COc1ccccc1OP(C)(=O)Nc1cc(Cl)ccc1C (centres undefined) | inactive: 3.56%
COc1ccc(OP(C)(=O)Nc2cccc(F)c2)cc1 (centres undefined) | inactive: -0.881%
Cc1cc(C)cc(OP(C)(N)=O)c1 (centres undefined) | inactive: -2.37%
CCOC(=O)c1ccc(NP(C)(=O)Oc2ccccc2)cc1 (centres undefined) | inactive: 1.21%
COc1ccccc1OP(C)(=O)Nc1ccc(C)cc1 (centres undefined) | inactive: 0.442%
Cc1ccc(NP(C)(=O)Oc2ccccc2)c(C)c1 (centres undefined) | inactive: 3.47%
CC(C)(C)c1ccc(OP(C)(=O)Nc2ccc(SC(F)(F)F)cc2)cc1 (centres undefined) | inactive: -6.76%
Cc1cccc(C)c1OP(C)(N)=O (centres undefined) | inactive: -0.615%
O=[N+]([O-])c1ccc2c(c1)C=Nc1ccccc1O2 | inactive: 1.39%
O=[N+]([O-])c1cc([N+](=O)[O-])c(Nc2cccnc2)c([N+](=O)[O-])c1 | inactive: 6.57%
COc1ccccc1-c1ccccn1.O=[N+]([O-])c1cc([N+](=O)[O-])c(O)c([N+](=O)[O-])c1 | inactive: 7.05%
CCN(CC)CCCOC(=O)C(O)(c1ccccc1)c1ccccc1 | inactive: -0.4%
CP(=O)(Nc1cccc(Br)c1)Oc1ccccc1 (centres undefined) | inactive: -4.67%

Compound | GFP/RFP ratio change
Cc1cc(C)cc(OP(C)(=O)Nc2ccccn2)c1 (centres undefined) | inactive: -0.531%
Cc1ccc(C)c(NP(C)(=O)Oc2ccccc2)c1 (centres undefined) | inactive: -0.743%
Cc1cc(C)cc(OP(C)(=O)Nc2ccc(C)cc2C)c1 (centres undefined) | inactive: 5.21%
CCOC(=O)c1ccc(NP(C)(=O)Oc2cc(C)cc(C)c2)cc1 (centres undefined) | inactive: 3.04%
COc1ccccc1OP(C)(=O)Nc1cccc(Br)c1 (centres undefined) | inactive: 0.851%
CC1=NCCc2c1[nH]c1ccccc21.O=[N+]([O-])c1cc([N+](=O)[O-])c(O)c([N+](=O)[O-])c1 | inactive: -2.42%
O=C(O)c1cccc(Nc2c([N+](=O)[O-])cc([N+](=O)[O-])cc2[N+](=O)[O-])c1 | inactive: 2.9%
CP(=O)(Nc1ccc(SC(F)(F)F)cc1)Oc1ccccc1 (centres undefined) | inactive: 4.7%
CCCOc1ccc(NP(C)(=O)Oc2ccc(Cl)cc2)cc1 (centres undefined) | inactive: 9.06%
COc1ccc(-c2ccccn2)cc1.O=[N+]([O-])c1cc([N+](=O)[O-])c(O)c([N+](=O)[O-])c1 | inactive: 13.8%
COc1ccccc1OP(C)(=O)Nc1c(C)cccc1C (centres undefined) | inactive: 3.93%
CN1CCCCC1COC(=O)C1(O)c2ccccc2CCc2ccccc21 (centres undefined) | inactive: -20.7%
O=[N+]([O-])c1cc([N+](=O)[O-])c(Nc2nnnn2CCO)c([N+](=O)[O-])c1 | inactive: 11.3%
CC1=C2N=C(C=C3N=C(C(C)=C4[N-][C@@](C)([C@@H]5N=C1[C@](C)(CCC(=O)NC[C@@H](C)OP(=O)([O-])O[C@H]1[C@@H](O)[C@@H](n6cnc7cc(C)c(C)cc76)O[C@@H]1CO)[C@H]5CC(N)=O)[C@@](C)(CC(N)=O)[C@@H]4CCC(N)=O)[C@@](C)(CC(N)=O)[C@@H]3CCC(N)=O)C(C)(C)[C@@H]2CCC(N)=O.[C-]#N.[Co+3] | inactive: 6.21%
CCOC(=O)C(CC)C1=NC(C)(C)Cc2ccccc21.O=[N+]([O-])c1cc([N+](=O)[O-])c(O)c([N+](=O)[O-])c1 (centres undefined) | inactive: 0.896%
Cc1nc2ccc3ccccc3c2s1.O=[N+]([O-])c1cc([N+](=O)[O-])c(O)c([N+](=O)[O-])c1 | inactive: 1.15%
O=[N+]([O-])c1cc([N+](=O)[O-])c(-c2cnn(-c3ccccc3)c2)c([N+](=O)[O-])c1 | inactive: -1.63%
CN(Cc1cccnc1)C(=O)COc1ccc(Cl)c(Cl)c1.O=[N+]([O-])c1cc([N+](=O)[O-])c(O)c([N+](=O)[O-])c1 | inactive: 3.87%
O=[N+]([O-])c1cc([N+](=O)[O-])c(-n2nnc3ccccc32)c([N+](=O)[O-])c1 | inactive: 2.72%
